According to patent US11744873B2, “Compositions and methods for the treatment of metabolic and liver disorders” (Viking Therapeutics, Inc., priority 2021, dated 2023):

Columns and labels:
[1] = system: mice fed Gubra amylin NASH (GAN) diet; experiment: Biological effects in GAN diet NASH mice; format: in vivo; conditions: after two weeks, 10 mg/kg group
Procedure: NASH was induced in mice by feeding mice a Gubra amylin NASH (GAN) diet as described in Boland et al. World J Gastroenterol. 2019, 25(33): 4904-4920. One week prior to administration of a first dose of compounds, the mice were weighed and randomized, and their food intake was measured. Mice were randomly assigned to dosing groups, with twelve mice per group. […] Compound dose titration (nmol/kg): 0.6 (day 0), 1.2 (day 1), 2.4 (day 2), 4.8 (day 3), 4.8 (day 4), 12 (day 5), 30.0 (from day 6).
After two weeks, animals were sacrificed. Plasma enzymes (P-ALT (alanine aminotransferase) and P-AST (aspartate aminotransferase)), total plasma triglycerides, and total plasma cholesterol were measured, and terminal necropsy of each liver was carried out, determining relative liver weight as a percentage of body weight, assaying total liver biochemistry including total liver triglycerides, plasma insulin and total liver cholesterol, as well as histological evaluation of Galectin-3, and alpha-smooth muscle actin.

GIP receptor = molecular target: T1, GIP receptor (Homo sapiens, UniProt P48546); experiment: HSA modulated binding assay, GIP receptor; conditions: binding with 2% HSA to binding with 0% HSA
T1 sequence (P48546 22-466): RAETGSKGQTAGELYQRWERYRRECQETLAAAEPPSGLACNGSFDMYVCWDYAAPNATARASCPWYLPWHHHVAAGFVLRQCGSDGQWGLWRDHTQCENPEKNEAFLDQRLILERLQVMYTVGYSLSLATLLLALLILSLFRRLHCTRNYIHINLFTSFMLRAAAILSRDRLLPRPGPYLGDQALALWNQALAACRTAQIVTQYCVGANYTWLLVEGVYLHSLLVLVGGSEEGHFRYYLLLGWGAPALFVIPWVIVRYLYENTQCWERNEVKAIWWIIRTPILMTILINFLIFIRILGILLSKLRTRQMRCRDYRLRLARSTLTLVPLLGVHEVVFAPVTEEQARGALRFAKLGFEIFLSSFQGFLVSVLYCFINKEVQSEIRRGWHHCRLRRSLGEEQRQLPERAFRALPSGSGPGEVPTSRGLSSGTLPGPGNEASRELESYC

tirzepatide [reference compound]
Gal-3 Relative ([1]; liver Galectin-3, histological quantitative assessment): 6.7 ± 0.5 percent fractional area | TG Relative ([1]; liver triglycerides, GAN diet NASH mice): 42 ± 6 mg per/ g liver | α-SMA Relative ([1]; liver α-smooth muscle actin, histological quantitative assessment): 5.3 ± 0.8 percent fractional area | Ratio of HSA/No HSA (GIP receptor): 5.82
